We go through one substance from patent publication US10550108B2, “Poly(ADP-ribose) polymerase 1 inhibitors structurally unrelated to NAD” (Institute for Cancer Research, priority 2014, dated 2020).

Chains of the proteins cited; added tags and fusions are not shown.
UniProt P09874, whole entry: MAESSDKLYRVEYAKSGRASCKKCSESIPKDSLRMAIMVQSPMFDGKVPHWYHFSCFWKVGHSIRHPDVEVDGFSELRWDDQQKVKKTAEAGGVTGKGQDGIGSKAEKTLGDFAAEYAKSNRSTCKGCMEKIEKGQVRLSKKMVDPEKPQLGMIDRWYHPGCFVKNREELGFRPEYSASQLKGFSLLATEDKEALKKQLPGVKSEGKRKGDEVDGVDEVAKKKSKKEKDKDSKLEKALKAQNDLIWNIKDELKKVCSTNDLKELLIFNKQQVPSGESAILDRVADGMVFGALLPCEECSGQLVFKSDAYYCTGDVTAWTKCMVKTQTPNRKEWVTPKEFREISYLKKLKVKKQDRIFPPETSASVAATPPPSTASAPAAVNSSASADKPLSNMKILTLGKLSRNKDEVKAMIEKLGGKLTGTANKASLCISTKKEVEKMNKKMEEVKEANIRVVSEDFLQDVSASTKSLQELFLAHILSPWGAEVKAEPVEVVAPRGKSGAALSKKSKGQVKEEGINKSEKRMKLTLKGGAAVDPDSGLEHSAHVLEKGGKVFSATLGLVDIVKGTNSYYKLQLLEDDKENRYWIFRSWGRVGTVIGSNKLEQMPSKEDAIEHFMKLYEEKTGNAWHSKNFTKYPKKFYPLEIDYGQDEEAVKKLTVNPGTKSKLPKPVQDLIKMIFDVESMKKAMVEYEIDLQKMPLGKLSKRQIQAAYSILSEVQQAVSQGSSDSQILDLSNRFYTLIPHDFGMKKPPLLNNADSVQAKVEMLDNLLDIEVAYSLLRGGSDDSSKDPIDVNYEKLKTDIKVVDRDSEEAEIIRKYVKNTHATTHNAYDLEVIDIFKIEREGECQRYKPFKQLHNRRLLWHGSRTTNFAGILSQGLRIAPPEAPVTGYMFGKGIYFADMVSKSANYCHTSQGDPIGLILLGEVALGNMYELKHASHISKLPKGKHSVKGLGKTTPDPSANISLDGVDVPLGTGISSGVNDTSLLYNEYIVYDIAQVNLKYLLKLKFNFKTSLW

Test [1] addresses T1, PARP-1 (Homo sapiens, UniProt P09874). The settings on record: BT474 and PC3 cell cultures, Western blot with anti-pADPr antibody.
In test [2] the target is T1, PARP-1. As to the kind of experiment: PARP-1 activation screening assay, 384-well ELISA plate coated with histone H4.

Turning to “4-Amino-1,8-naphthalimide [Formula 4ANI]”, at PARP-1 [1], the “pADPr amounts in cells (PARP-1 inhibition)” value was “diminished pADPr amounts considerably”. At PARP-1 [2], this substance returned a Value of 0.05.
